Broadly, the IC50 is the point on the concentration scale where inhibition reaches its midpoint.

By UniProt entry, the sequences of proteins in these tests, tags left out. Where a name states a change or a piece, a line headed by the entry shows the natural chain unless it says otherwise.
UniProt Q99572: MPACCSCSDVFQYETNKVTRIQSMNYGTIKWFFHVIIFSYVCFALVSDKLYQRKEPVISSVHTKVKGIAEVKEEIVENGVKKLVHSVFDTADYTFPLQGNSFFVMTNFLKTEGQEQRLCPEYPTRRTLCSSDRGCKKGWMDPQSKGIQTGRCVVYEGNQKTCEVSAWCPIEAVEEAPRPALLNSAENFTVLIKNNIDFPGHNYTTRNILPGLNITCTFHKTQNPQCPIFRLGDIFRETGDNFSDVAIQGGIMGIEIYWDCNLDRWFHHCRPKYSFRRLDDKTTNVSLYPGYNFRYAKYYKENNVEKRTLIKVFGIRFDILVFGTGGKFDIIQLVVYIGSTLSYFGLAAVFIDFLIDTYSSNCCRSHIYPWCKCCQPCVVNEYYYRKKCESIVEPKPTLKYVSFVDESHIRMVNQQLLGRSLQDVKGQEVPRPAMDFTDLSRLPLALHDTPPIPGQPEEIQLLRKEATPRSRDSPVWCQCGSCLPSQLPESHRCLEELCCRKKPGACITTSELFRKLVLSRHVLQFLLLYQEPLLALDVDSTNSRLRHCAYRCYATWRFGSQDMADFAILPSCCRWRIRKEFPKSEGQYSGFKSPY

The values that follow come from patent publication US9718812B2, “Substituted thiazole or oxazole P2X7 receptor antagonists” (Axxam S.P.A., priority 2014, dated 2017).

Assay type in all cases: cell-based
Assay [1] addresses P2X7 receptor (hP2X7) (Homo sapiens (Human), UniProt Q99572). Nature of the assay: Screen Quest Fluo-8 No Wash Calcium Assay (Bz-ATP-induced Ca2+ influx, FLIPR TETRA). The settings on record: HEK-293 cells stably transfected with P2X7 receptor, Fluo-8 calcium, Low Divalent Cation Assay Buffer. How it is done: Extracellular binding of Bz-ATP to P2X7 receptor opens the channel and allows Ca2+ influx into the cells. This Ca2+ entry was measured in HEK-293 cells stably transfected with P2X7 receptor using Screen Quest™ Fluo-8 No Wash Calcium Assay Kit (AAt Bioquest®, cat. 36316). Once inside the cell, the lipophilic blocking groups of Fluo-8 are cleaved by non-specific cell esterases, resulting in a negatively-charged fluorescent dye that stays inside cells. Its fluorescence increases upon binding to calcium. When HEK-293/P2X7 cells are stimulated with Bz-ATP, Ca2+ enters the cells and the fluorescence of Fluo-8 NW increases. The dye has an absorption spectrum compatible with excitation at 488 nm by argon laser sources and its emission wavelength is in the range of 515-575 nm.
HEK-293 cells stably transfected with P2X7 receptor were seeded overnight in growth medium at 10,000 to 20,000 cells/well in 384-well plate. 24 hours later, the medium was removed and the cells were pre-loaded at RT for 1 hour with 20 μL/w of Fluo-8 NW. Then 10 μL/w of test compounds and reference antagonist A438079 at 3×-concentration were injected with the FLIPRTETRA and the kinetic response over a period of five minutes was monitored. A second injection of 15 μL/w of 3× reference activator (Bz-ATP at EGO was performed with the FLIPRTETRA and the signal of the emitted fluorescence was recorded for additional three minutes. All the experiment was carried out in a Low Divalent Cation Assay Buffer (0.3 mM Ca2+ and 0 mM Mg2+). The effect of the test compounds was measured as percent inhibition vs the reference antagonist and IC50 values were calculated accordingly.

Assay [2] concerns the target T1, P2X7 receptor (Homo sapiens (Human), UniProt Q99572). Kind of assay: YO-PRO-1 Uptake Assay (large pore form, Bz-ATP stimulated). As to conditions: HEK-293 cells stably transfected with P2X7 receptor; Bz-ATP EC80 (30 μM); 5 μM YO-PRO-1. The text has this:
YO-PRO®-1 is a fluorescent DNA-binding dye with a MW of 374 Da (Molecular Probes®, cat. Y3603). This method is based upon the presumed ability of YO-PRO®-1 to enter through the dilated or “large pore form” of P2X7 receptor and to bind to intracellular DNA whereupon it increases many fold its fluorescence intensity. The dye has an absorption spectrum compatible with excitation at 488 nm by argon laser sources and its emission wavelength is in the range of 515-575 nm. The aim of this assay was to validate the interaction of antagonists with P2X7 receptor using an alternative readout to Ca^2+-sensitive fluorescent dyes.
HEK-293 cells stably transfected with P2X7 receptor were seeded overnight in growth medium at 20,000 cells/well in 384-well plate. 24 hours later, the medium was removed, the cells were washed with Low Divalent Cation Assay Buffer (0.3 mM Ca2+ and 0 mM Mg2+) and then pre-loaded with 20 μL/w of 5 μM YO-PRO®-1 dye. FLIPRTETRA fluorescence measurement immediately started. Then, 10 μL/w of test compounds and reference antagonist A438079 at 3×-concentration were injected with the FLIPRTETRA and the kinetic response over a period of five minutes was monitored. A second injection of 10 μL/w of 3× Bz-ATP EC80 (30 μM) was performed with the FLIPRTETRA and the signal of the emitted fluorescence was recorded for additional 60 minutes. All the experiment was carried out with a Low Divalent Cation Assay Buffer (0.3 mM Ca^2+ and 0 mM Mg^2+).
The effect of the test compounds was measured as percent inhibition vs the reference antagonist and IC50 values were calculated accordingly.

Assay [3] deals with T1, P2X7 receptor. Nature of the assay: human P2X7 channel assay by automated patch-clamp (QPatch 16X). The settings on record: HEK-293 cells expressing P2X7 channels, 100 microM BzATP, held at -80 mV, read-out: hP2X7 (IC50; nM). How it is done: In order to directly monitor the block of P2X7 channel, an electrophysiological assay was developed and implemented on the QPatch 16X automated electrophysiology instrument.
HEK-293 cells expressing the P2X7 channels were cultured in modified EMEM.
72 hours before experiment, 5 million cells were seeded onto T225 flasks. Just before the experiment cells were washed twice, detached from the flask with trypsin-EDTA, re-suspended in the suspension solution and placed on the QPatch 16x.
The compounds (20 mM in a 100% DMSO) stored at −20° C. were prepared the day of the experiment (a first dilution 1:20 in 100% DMSO to prepare a 1 mM stock solution, then a 1 microM solution in external solution+a serial dilution 1:10).
The standard whole-cell voltage clamp experiments were performed at room temperature. For these experiments the multihole technology was used and the data were sampled at 2 KHz.
The intracellular solution contained (mM) 135 CsF, 10 NaCl, 1 EGTA, 10 HEPES, (pH 7.2 with CsOH) whereas the extracellular contained (mM) 145 NaCl, 4 KCl, 0.5 MgCl2, 1 CaCl2, 10 HEPES, 10 Glc (pH 7.4 with NaOH).
After establishment of the seal and the passage in the whole cell configuration, the cells were held at −80 mV. The P2XR7 current was evoked by applying 100 microM of BzATP alone (4 times) and then in the presence increasing concentrations of the compound under investigation (1, 10, 100 and 1000 nM).
The pre-incubation periods 5 to 8 contain increasing concentrations of the compound of interest (1, 10, 100 and 1000 nM), as illustrated in Figure (application protocol).
The maximal inward current evoked by BzATP in absence or presence of increasing concentrations of the compounds under investigation was measured and normalized. The potential agonist effect was measured as % of control and as IC50 determined fitting the dose-response curves data with the following equation: Y=100/(1+10^((Log IC50−X)*HillSlope))
Y: normalized response, 100% down to 0%, decreasing as X increases.
Log IC50: same log units as X
HillSlope: slope factor or HS, unitless
(Patch clamp records ionic current or voltage across a cell membrane.)

`Cc1ncsc1C(CNC(=O)c1cc(-c2ncc(F)cn2)ccc1Cl)N1CCC(F)(F)CC1` (racemic) [Compound 34, 2-chloro-N-[2-(4,4-difluoropiperidin-1-yl)-2-(4-methyl-1,3-thiazol-5-yl)ethyl]-5-(5-fluoropyrimidin-2-yl)benzamide]: the IC50 was 111 nM in assay [1], 41 nM in assay [2] and 131 nM in assay [3].

As to `Cc1ncsc1C(CNC(=O)c1cc(-c2ncc(F)cn2)ccc1Cl)N1CCC(F)(F)CC1` (single isomer, unassigned; (+)) [Compound 75, (+)-2-chloro-N-[2-(4,4-difluoropiperidin-1-yl)-2-(4-methyl-1,3-thiazol-5-yl)ethyl]-5-(5-fluoropyrimidin-2-yl)benzamide], the IC50 was 30 nM in assay [1] and 28 nM in assay [2].

With `Cc1ncsc1C(CNC(=O)c1cc(-c2ncc(F)cn2)ccc1Cl)N1CCC(F)(F)CC1` (single isomer, unassigned; (-)) [Compound 76, (−)-2-chloro-N-[2-(4,4-difluoropiperidin-1-yl)-2-(4-methyl-1,3-thiazol-5-yl)ethyl]-5-(5-fluoropyrimidin-2-yl)benzamide], the IC50 came out at 238 nM in assay [1], 637 nM in assay [2] and 35.9 nM in assay [3].

For the molecule `[2H]c1nc(C)c(C(CNC(=O)c2cc(-c3ncc(F)cn3)ccc2Cl)N2CCC(F)(F)CC2)s1` (stereo not drawn) [Compound 69, 2-chloro-N-[2-(4,4-difluoropiperidin-1-yl)-2-[4-methyl(^2H)-1,3-thiazol-5-yl]ethyl]-5-(5-fluoropyrimidin-2-yl)benzamide], the half-inhibitory concentration (IC50) in assay [3] came to 31.4 nM.
